# Assay results reported in US20050095279A1, “Transdermal analgesic systems having reduced abuse potential” (published 2005).
# Legend:
# [1] = Activity studies: normal activity, showering, physical exercise (Example 29); settings: placebo system with naltrexone (44 cm^2), three 4-hour periods; majority of the serum samples; lower limit of quantitation approximately 5 pg/mL
# [2] = test system: healthy subjects; experiment: Contact sensitization potential of transdermal systems in healthy subjects (Example 28); settings: System A (placebo with naltrexone, 44 cm^2); days 17, 19, 22; majority of the serum samples; lower limit of quantitation approximately 5 pg/mL
smiles,measurement,setting,value
O=C1CC[C@@]2(O)[C@H]3Cc4ccc(O)c5c4[C@@]2(CCN3CC2CC2)[C@H]1O5,serum naltrexone concentration,[1],below quantifiable limits
same,serum naltrexone concentration,[2],below quantifiable limits
